Test results reported in paper PMC12235045, “Structural insights into allosteric inhibition of HRI kinase by heme binding via HDX-MS” (Biochemical Journal, 2025).

The chains behind the UniProt entries cited, without tags or fusion partners.
UniProt Q9BQI3, whole entry, stated change not applied: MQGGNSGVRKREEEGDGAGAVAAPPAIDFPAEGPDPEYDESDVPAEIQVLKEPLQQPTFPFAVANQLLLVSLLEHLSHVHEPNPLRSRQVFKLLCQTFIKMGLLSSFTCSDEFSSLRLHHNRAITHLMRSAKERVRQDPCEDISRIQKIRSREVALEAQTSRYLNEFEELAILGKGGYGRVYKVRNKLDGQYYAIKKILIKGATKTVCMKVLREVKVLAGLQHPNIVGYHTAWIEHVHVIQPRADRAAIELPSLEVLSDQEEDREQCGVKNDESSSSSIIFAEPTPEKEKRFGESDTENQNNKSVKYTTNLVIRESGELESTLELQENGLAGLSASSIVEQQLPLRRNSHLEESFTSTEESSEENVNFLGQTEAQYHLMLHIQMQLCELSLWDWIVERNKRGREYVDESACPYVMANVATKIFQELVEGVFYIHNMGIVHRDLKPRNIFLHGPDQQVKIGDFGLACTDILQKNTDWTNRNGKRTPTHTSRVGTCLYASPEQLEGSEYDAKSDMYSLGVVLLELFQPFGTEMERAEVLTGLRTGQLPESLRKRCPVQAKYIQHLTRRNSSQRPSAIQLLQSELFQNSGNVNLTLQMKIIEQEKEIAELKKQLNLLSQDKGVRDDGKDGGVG

Experiments:
[1] = target: HRI (heme-regulated inhibitor) (UniProt Q9BQI3); test: mass photometry; conditions: reference: autophosphorylated HRI; sites S6,S41,T97,S114,S115,S144,S151,T160,Y192,Y193,S253,S258,S275,S276,S277,S278,S295,T297,S304,T308,T309,Y405,S409,Y413,T467,T477,T486,T488,S489,T493,Y496,S498,S505,T538,T542,S548,T564,S586,S615
[2] = target: HRI (heme-regulated inhibitor) (UniProt Q9BQI3); test: size-exclusion chromatography (Superdex 200); conditions: reference: autophosphorylated HRI; sites S6,S41,T97,S114,S115,S144,S151,T160,Y192,Y193,S253,S258,S275,S276,S277,S278,S295,T297,S304,T308,T309,Y405,S409,Y413,T467,T477,T486,T488,S489,T493,Y496,S498,S505,T538,T542,S548,T564,S586,S615

Row | Substance | other: mass of predominant population [1] | other: retention volume [2]
1 | HRI (heme-regulated inhibitor) (from UniProt Q9BQI3) dephosphorylated HRI | same; reference ~150 | 
2 | HRI (heme-regulated inhibitor) (from UniProt Q9BQI3) lambda phosphatase-dephosphorylated HRI |  | same; reference 10.47
